Reference: patent US20260200947A1, “FUSED CYCLIC COMPOUNDS AND USE THEREOF” (Jacobio Pharmaceuticals Co., Ltd., priority 2022, published 2026)

Tests used:
[1] = system: AsPC-1 cells (K-Ras G12D)

IC50 [1]: 38.4 nM
IC50 (AGS cells (K-Ras G12D)): 7.63 nM
IC50 (SW620 cells (K-Ras G12V)): 16.5 nM
SMILES: C#Cc1c(F)ccc2cc(N)cc(-c3nc4c5c(nc(OC[C@@]67CCCN6C[C@H](F)C7)nc5c3F)N3CC(=O)COC[C@H]3N4C)c12 [Compound 155B]
